ChEMBL document CHEMBL1155936, “Allosteric FBPase inhibitors gain 10(5) times in potency when simultaneously binding two neighboring AMP sites” (Bioorg Med Chem Lett, 2008)

Target: T1, Fructose-1,6-bisphosphatase 1 (Homo sapiens, UniProt P09467)
T1 sequence (P09467 whole entry): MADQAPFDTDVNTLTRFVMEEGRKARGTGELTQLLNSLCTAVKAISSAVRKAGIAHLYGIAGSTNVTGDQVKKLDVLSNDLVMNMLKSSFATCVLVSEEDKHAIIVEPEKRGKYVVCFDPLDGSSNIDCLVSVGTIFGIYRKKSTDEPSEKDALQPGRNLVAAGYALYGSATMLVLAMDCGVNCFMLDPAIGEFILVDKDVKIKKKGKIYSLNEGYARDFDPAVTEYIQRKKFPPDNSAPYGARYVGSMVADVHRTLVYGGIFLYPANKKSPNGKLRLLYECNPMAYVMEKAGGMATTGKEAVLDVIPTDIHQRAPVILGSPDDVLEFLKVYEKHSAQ
Assay: Inhibition of human liver fructose-1,6-bisphosphatase

IC50: 9 nM
Compound: O=C(NCCCCCCCNC(=O)NS(=O)(=O)c1cccc(Cl)c1)NS(=O)(=O)c1cccc(Cl)c1
